Literature values in patent publication US11432959B2, “Porous structures for extended release drug delivery devices” (ForSight Vision4, Inc., priority 2015, dated 2022).

Conditions: bovine serum albumin in water at 20° C. (Molokhia et al, Exp Eye Res 2008)

Substance: bovine serum albumin [BSA]
- Diffusion coefficient (D): 6.1 e-7 cm^2/s
